# Measurements: publication PMC6056553, “Allosteric sodium binding cavity in GPR3: a novel player in modulation of Aβ production” (Scientific Reports, 2018)
# Amino acid sequences for entries named in this document (tags omitted).
# UniProt P46089, whole entry F120A: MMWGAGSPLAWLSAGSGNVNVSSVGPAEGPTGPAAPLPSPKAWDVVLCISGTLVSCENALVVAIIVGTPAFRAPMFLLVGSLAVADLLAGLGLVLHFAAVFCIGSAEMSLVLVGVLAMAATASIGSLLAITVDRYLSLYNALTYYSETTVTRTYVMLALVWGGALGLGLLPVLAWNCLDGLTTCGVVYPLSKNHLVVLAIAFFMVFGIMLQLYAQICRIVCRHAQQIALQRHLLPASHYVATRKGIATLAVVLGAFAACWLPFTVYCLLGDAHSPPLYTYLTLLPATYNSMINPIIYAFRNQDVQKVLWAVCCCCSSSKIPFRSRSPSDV
# UniProt P46089, whole entry C267A: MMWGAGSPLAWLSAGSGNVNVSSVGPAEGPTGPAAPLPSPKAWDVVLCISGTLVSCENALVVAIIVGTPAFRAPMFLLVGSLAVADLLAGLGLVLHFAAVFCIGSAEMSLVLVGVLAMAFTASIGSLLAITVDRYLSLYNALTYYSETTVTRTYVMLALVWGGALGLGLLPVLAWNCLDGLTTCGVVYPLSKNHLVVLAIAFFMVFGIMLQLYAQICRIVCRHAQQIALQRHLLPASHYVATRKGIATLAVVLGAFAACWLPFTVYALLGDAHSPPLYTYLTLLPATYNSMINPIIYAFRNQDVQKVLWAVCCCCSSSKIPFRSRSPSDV
# How the values were obtained:
# Assay type in all cases: cell-based
# [1] = biological target: G-protein coupled receptor 3 (GPR3) (Homo sapiens, UniProt P46089, F120A); assay: cAMP accumulation (AlphaScreen) in HEK293 cells transfected with mutant GPR3, agonist dose-response
# [2] = biological target: G-protein coupled receptor 3 (GPR3) (Homo sapiens, UniProt P46089, C267A); assay: as above
# [3] = biological target: G-protein coupled receptor 3 (GPR3) (Homo sapiens, UniProt P46089); assay: cAMP accumulation (AlphaScreen) in HEK293 cells transfected with GPR3, agonist dose-response, with mutagenesis
smiles,measurement,setting,value
"c1ccc2c(c1)[I+]c1ccccc1-2 [DPI, diphenyleneiodonium chloride]",EC50,[1],15 µM
same,EC50,[2],5 µM
same,EC50,[3],~2000 nM
